Reference: US20090036426A1 (AMPLA Pharmaceuticals Inc., priority 2007, published 2009)

Assay: Acute administration: wet mash and food intake and 24 h body weight in lean mice (Example 3)
Format: in vivo, male C57BL/6J mice
Details: dosed alone; not as much of a reduction as with the combinations with bupropion
Description: The goal of this study was to investigate the effects of various ratios of bupropion:(R)-norfluoxetine on body weight and food and water intake in male C57BL/6J mice habituated to the daily presentation of a palatable wet mash diet. Rimonabant was used as a reference compound. Animals were maintained on normal-phase lighting. Test compounds were administered orally and measurements were made over the following 24 hours. All experiments included appropriate vehicle-treated control groups.
Sixty-two male C57BL/6J mice (weight range 20-25 g) were ordered from Harlan UK, Bicester, UK. The mice were individually housed in polypropylene cages at a temperature of 21±4° C. and 55%±20% humidity. […]
Typically an acute study was run each week with each study containing 60 animals. […] Animals were weighed and 2 h wet mash intake was calculated (to the nearest 0.1 g). […]
Drug administration occurred 60 minutes before the presentation of ‘wet mash’ which was at approximately 09:30 am. […] The mash was replaced with a fresh quantity of wet mash at the 4 hour time point. […] Wet mash was replaced with a known quantity of standard pellets at the 6 hour time point. […] Food and water intakes of the different groups of animals were measured concurrently. The animals were monitored at each reading and any overt drug-induced behavioural effects were recorded. […]

NCC[C@@H](Oc1ccc(C(F)(F)F)cc1)c1ccccc1.O=C(O)C(O)C(O)C(=O)O [(R) -Norfluoxetine (D)-tartrate, (R)-norfluoxetine (D)-tartrate]
weight gain: reduction | wet mash intake: reduction
